The assay deals with isolated polymerase domain (I1780-V2590) of DNA polymerase theta (Polθ) (Homo sapiens (Human), UniProt O75417).

The chains behind the UniProt entries cited, without tags or fusion partners. Residues count along the entry.
UniProt O75417, 1780-2590: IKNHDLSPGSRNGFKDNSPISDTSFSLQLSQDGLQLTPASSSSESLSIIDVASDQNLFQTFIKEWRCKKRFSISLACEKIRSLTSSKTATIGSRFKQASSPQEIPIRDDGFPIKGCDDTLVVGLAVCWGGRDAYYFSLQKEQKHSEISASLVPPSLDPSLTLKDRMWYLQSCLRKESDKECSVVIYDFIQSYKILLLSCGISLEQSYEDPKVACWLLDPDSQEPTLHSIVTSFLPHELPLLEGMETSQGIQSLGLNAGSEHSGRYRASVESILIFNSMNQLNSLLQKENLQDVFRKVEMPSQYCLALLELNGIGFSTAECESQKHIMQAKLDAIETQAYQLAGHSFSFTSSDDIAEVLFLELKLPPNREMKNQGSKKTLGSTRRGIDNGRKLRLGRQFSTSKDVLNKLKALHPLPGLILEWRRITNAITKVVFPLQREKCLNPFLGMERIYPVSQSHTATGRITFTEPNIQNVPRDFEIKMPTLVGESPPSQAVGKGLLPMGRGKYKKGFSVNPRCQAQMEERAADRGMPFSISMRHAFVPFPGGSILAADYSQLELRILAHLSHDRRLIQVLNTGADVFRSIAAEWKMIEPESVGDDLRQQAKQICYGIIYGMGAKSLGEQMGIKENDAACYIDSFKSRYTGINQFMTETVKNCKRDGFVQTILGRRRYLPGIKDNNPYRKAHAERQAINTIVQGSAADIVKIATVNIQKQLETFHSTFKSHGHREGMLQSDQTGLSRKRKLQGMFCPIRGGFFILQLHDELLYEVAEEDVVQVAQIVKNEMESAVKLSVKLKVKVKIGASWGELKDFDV

pIC50: −log10 of the molar value.

Consider `CC1(Oc2ncnc3c2nc(-c2ccc(OCCN4CC5(CC(O)C5)C4)cc2Cl)n3Cc2ccccc2)CC1` [Example H16, 2-(2-(4-(9-benzyl-6-(1-methylcyclopropoxy)-9H-purin-8-yl)-3-chlorophenoxy)ethyl)-2-azaspiro[3.3]heptan-6-ol], for which the negative-log IC50 (pIC50) (in general, −log10 of the IC50, conventionally taken in molar units) is 8.60.
The result for `CC1(Oc2ncnc3c2nc(-c2ccc(OCCCN4CC(O)C4)cc2Cl)n3Cc2ccccc2)CC1` [Example H17, 1-(3-(4-(9-benzyl-6-(1-methylcyclopropoxy)-9H-purin-8-yl)-3-chlorophenoxy)propyl)azetidin-3-ol] reads 8.70; that for `CC1(Oc2ncnc3c2nc(-c2ccc(OCCN4CC5(CCN5)C4)cc2Cl)n3Cc2ccccc2)CC1` [Example H18, 8-(4-(2-(1,6-diazaspiro[3.3]heptan-6-yl)ethoxy)-2-chlorophenyl)-9-benzyl-6-(1-methylcyclopropoxy)-9H-purine], 8.60.
For the compound `C[C@H]1C(=O)NCCN1CCOc1ccc(-c2nc3c(OC4(C)CC4)ncnc3n2Cc2ccccc2)c(Cl)c1` [Example H19, (S)-4-(2-(4-(9-benzyl-6-(1-methylcyclopropoxy)-9H-purin-8-yl)-3-chlorophenoxy)ethyl)-3-methylpiperazin-2-one], the pIC50 is 8.60.
The result for `CC1(Oc2ncnc3c2nc(-c2ccc(OCCN4CC5(C4)CS(=O)(=O)C5)cc2Cl)n3Cc2ccccc2)CC1` [Example H20, 6-(2-(4-(9-benzyl-6-(1-methylcyclopropoxy)-9H-purin-8-yl)-3-chlorophenoxy)ethyl)-2-thia-6-azaspiro[3.3]heptane 2,2-dioxide] reads 8.60; that for `CC1(Oc2ncnc3c2nc(-c2ccc(OCCN4CCNC(=O)CC4)cc2Cl)n3Cc2ccccc2)CC1` [Example H21, 1-(2-(4-(9-benzyl-6-(1-methylcyclopropoxy)-9H-purin-8-yl)-3-chlorophenoxy)ethyl)-1,4-diazepan-5-one], 8.60.
Next, `C[C@@H]1C(=O)NCCN1CCOc1ccc(-c2nc3c(OC4(C)CC4)ncnc3n2Cc2ccccc2)c(Cl)c1` [Example H22, (R)-4-(2-(4-(9-benzyl-6-(1-methylcyclopropoxy)-9H-purin-8-yl)-3-chlorophenoxy)ethyl)-3-methylpiperazin-2-one]: 8.70; `CC1(Oc2ncnc3c2nc(-c2ccc(OCCN4CCNCC4)c(Cl)c2Cl)n3Cc2ccccc2)CC1` [Example J1, 9-benzyl-8-(2,3-dichloro-4-(2-(piperazin-1-yl)ethoxy)phenyl)-6-(1-methylcyclopropoxy)-9H-purine]: 8.20.
Next, `COc1cc(-c2nc3c(OC4(C)CC4)ncnc3n2Cc2ccccc2)c(Cl)cc1OCCN1CCNCC1` [Example J2, 9-benzyl-8-(2-chloro-5-methoxy-4-(2-(piperazin-1-yl)ethoxy)phenyl)-6-(1-methylcyclopropoxy)-9H-purine]: 8.10; `COc1c(OCCN2CCNCC2)ccc(-c2nc3c(OC4(C)CC4)ncnc3n2Cc2ccccc2)c1Cl` [Example J3, 9-benzyl-8-(2-chloro-3-methoxy-4-(2-(piperazin-1-yl)ethoxy)phenyl)-6-(1-methylcyclopropoxy)-9H-purine]: 8.20.
For `CC1(Oc2ncnc3c2nc(-c2cc(Cl)c(OCCN4CCNCC4)cc2Cl)n3Cc2ccccc2)CC1` [Example J4, 9-benzyl-8-(2,5-dichloro-4-(2-(piperazin-1-yl)ethoxy)phenyl)-6-(1-methylcyclopropoxy)-9H-purine], the pIC50 was 8.30.
Regarding `Cc1cc(OCCN2CCNCC2)ncc1-c1nc2c(OC3(C)CC3)ncnc2n1Cc1ccccc1Cl` [Example J5, 9-(2-chlorobenzyl)-8-(4-methyl-6-(2-(piperazin-1-yl)ethoxy)pyridin-3-yl)-6-(1-methylcyclopropoxy)-9H-purine], the pIC50 was 8.20.
Next, `Cc1cc(OCCN2CCNCC2)ncc1-c1nc2c(OC3(C)CC3)ncnc2n1Cc1cccc(Cl)c1` [Example J6, 9-(3-chlorobenzyl)-8-(4-methyl-6-(2-(piperazin-1-yl)ethoxy)pyridin-3-yl)-6-(1-methylcyclopropoxy)-9H-purine]: 8.70; `CC1(Oc2ncnc3c2nc(-c2ccc(OCCN4CCNCC4)cc2Cl)n3Cc2ccccn2)CCC1` [Example J7, 8-(2-chloro-4-(2-(piperazin-1-yl)ethoxy)phenyl)-6-(1-methylcyclobutoxy)-9-(pyridin-2-ylmethyl)-9H-purine]: 8.30; `CC1(Oc2ncnc3c2nc(-c2ccc(OCCN4CCNCC4)cc2Cl)n3CCc2cccnc2)CC1` [Example J8, 8-(2-chloro-4-(2-(piperazin-1-yl)ethoxy)phenyl)-6-(1-methylcyclopropoxy)-9-(2-(pyridin-3-yl)ethyl)-9H-purine]: 7.00.
The result for `C[C@H](Cn1c(-c2ccc(OCCN3CCNCC3)cc2Cl)nc2c(OC3(C)CC3)ncnc21)c1ccccc1` [Example J9, (S)-8-(2-chloro-4-(2-(piperazin-1-yl)ethoxy)phenyl)-6-(1-methylcyclopropoxy)-9-(2-phenylpropyl)-9H-purine] reads 8.00; that for `C[C@@H](Cn1c(-c2ccc(OCCN3CCNCC3)cc2Cl)nc2c(OC3(C)CC3)ncnc21)c1ccccc1` [Example J10, (R)-8-(2-chloro-4-(2-(piperazin-1-yl)ethoxy)phenyl)-6-(1-methylcyclopropoxy)-9-(2-phenylpropyl)-9H-purine], 8.70; that for `CC1(Oc2ncnc3c2nc(-c2ccc(OCCN4CCNCC4)cc2Cl)n3CCc2ccccn2)CC1` [Example J11, 8-(2-chloro-4-(2-(piperazin-1-yl)ethoxy)phenyl)-6-(1-methylcyclopropoxy)-9-(2-(pyridin-2-yl)ethyl)-9H-purine], 7.40.
Next, `CC1(Oc2ncnc3c2nc(-c2ccc(OCCN4CCNCC4)cc2Cl)n3CCc2ccccc2)CC1` [Example J12, 8-(2-chloro-4-(2-(piperazin-1-yl)ethoxy)phenyl)-6-(1-methylcyclopropoxy)-9-phenethyl-9H-purine]: 8.70; `CC1(Oc2ncnc3c2nc(-c2ccc(OCCN4CCNCC4)cc2Cl)n3Cc2cccc(Cl)c2)CC1` [Example J13, 8-(2-chloro-4-(2-(piperazin-1-yl)ethoxy)phenyl)-9-(3-chlorobenzyl)-6-(1-methylcyclopropoxy)-9H-purine]: 8.50.
`CN1CCN(CCOc2ccc(-c3nc4c(OC5(C)CC5)ncnc4n3Cc3ccncc3)c(Cl)c2)CC1` [Example K1, 8-(2-chloro-4-(2-(4-methylpiperazin-1-yl)ethoxy)phenyl)-6-(1-methylcyclopropoxy)-9-(pyridin-4-ylmethyl)-9H-purine] gave a pIC50 of 7.30.
Next, `CC1(Oc2ncnc3c2nc(-c2ccc(OCCN4CCNCC4)cc2Cl)n3Cc2cscn2)CC1` [Example K2, 4-((8-(2-chloro-4-(2-(piperazin-1-yl)ethoxy)phenyl)-6-(1-methylcyclopropoxy)-9H-purin-9-yl)methyl)thiazole]: 7.90; `CC1(Oc2ncnc3c2nc(-c2ccc(OCCN4CCNCC4)cc2Cl)n3Cc2ccc(Cl)cn2)CC1` [Example K3, 8-(2-chloro-4-(2-(piperazin-1-yl)ethoxy)phenyl)-9-((5-chloropyridin-2-yl)methyl)-6-(1-methylcyclopropoxy)-9H-purine]: 8.30; `CC1(Oc2ncnc3c2nc(-c2ccc(OCCN4CCNCC4)cc2Cl)n3Cc2nccs2)CC1` [Example K4, 2-((8-(2-chloro-4-(2-(piperazin-1-yl)ethoxy)phenyl)-6-(1-methylcyclopropoxy)-9H-purin-9-yl)methyl)thiazole]: 8.20.
Next, `CC1(Oc2ncnc3c2nc(-c2ccc(OCCN4CCNCC4)cc2Cl)n3Cc2ncccc2Cl)CC1` [Example K5, 8-(2-chloro-4-(2-(piperazin-1-yl)ethoxy)phenyl)-9-((3-chloropyridin-2-yl)methyl)-6-(1-methylcyclopropoxy)-9H-purine]: 7.70.
Take `Cc1nc(Cn2c(-c3ccc(OCCN4CCNCC4)cc3Cl)nc3c(OC4(C)CC4)ncnc32)cs1` [Example K6, 4-((8-(2-chloro-4-(2-(piperazin-1-yl)ethoxy)phenyl)-6-(1-methylcyclopropoxy)-9H-purin-9-yl)methyl)-2-methylthiazole]: the pIC50 is 7.90.
The result for `Cc1cccc(Cn2c(-c3ccc(OCCN4CCNCC4)cc3Cl)nc3c(OC4(C)CC4)ncnc32)n1` [Example K7, 8-(2-chloro-4-(2-(piperazin-1-yl)ethoxy)phenyl)-6-(1-methylcyclopropoxy)-9-((6-methylpyridin-2-yl)methyl)-9H-purine] reads 8.10; that for `CC1(Oc2ncnc3c2nc(-c2ccc(OCCN4CCNCC4)cc2Cl)n3Cc2cc(C(F)(F)F)ccn2)CC1` [Example K8, 8-(2-chloro-4-(2-(piperazin-1-yl)ethoxy)phenyl)-6-(1-methylcyclopropoxy)-9-((4-(trifluoromethyl)pyridin-2-yl)methyl)-9H-purine], 8.70.
Next, `CC1(Oc2ncnc3c2nc(-c2ccc(OCCN4CCNCC4)cc2Cl)n3Cc2cccc(C#N)n2)CC1` [Example K9, 6-((8-(2-chloro-4-(2-(piperazin-1-yl)ethoxy)phenyl)-6-(1-methylcyclopropoxy)-9H-purin-9-yl)methyl)picolinonitrile]: 8.40.
Next, `COc1cccc(Cn2c(-c3ccc(OCCN4CCNCC4)cc3Cl)nc3c(OC4(C)CC4)ncnc32)n1` [Example K10, 8-(2-chloro-4-(2-(piperazin-1-yl)ethoxy)phenyl)-9-((6-methoxypyridin-2-yl)methyl)-6-(1-methylcyclopropoxy)-9H-purine]: 8.10.
On to `CC1(Oc2ncnc3c2nc(-c2ccc(OCCN4CCNCC4)cc2Cl)n3Cc2ncccc2C#N)CC1` [Example K11, 2-((8-(2-chloro-4-(2-(piperazin-1-yl)ethoxy)phenyl)-6-(1-methylcyclopropoxy)-9H-purin-9-yl)methyl)nicotinonitrile], for which the pIC50 is 7.70.
Next, `Cc1scnc1Cn1c(-c2ccc(OCCN3CCNCC3)cc2Cl)nc2c(OC3(C)CC3)ncnc21` [Example K12, 4-((8-(2-chloro-4-(2-(piperazin-1-yl)ethoxy)phenyl)-6-(1-methylcyclopropoxy)-9H-purin-9-yl)methyl)-5-methylthiazole]: 7.20.

The values are drawn from patent US20250195530A1, “POLQ INHIBITORS” (ASTRAZENECA AB, priority 2022, published 2025).
